Laboratory results from patent US20260124309A1, “STAT6 DEGRADERS AND USES THEREOF” (Kymera Therapeutics, Inc., priority 2023, published 2026).

The chains behind the UniProt entries cited, without tags or fusion partners. Residues count along the entry.
UniProt P42226, whole entry: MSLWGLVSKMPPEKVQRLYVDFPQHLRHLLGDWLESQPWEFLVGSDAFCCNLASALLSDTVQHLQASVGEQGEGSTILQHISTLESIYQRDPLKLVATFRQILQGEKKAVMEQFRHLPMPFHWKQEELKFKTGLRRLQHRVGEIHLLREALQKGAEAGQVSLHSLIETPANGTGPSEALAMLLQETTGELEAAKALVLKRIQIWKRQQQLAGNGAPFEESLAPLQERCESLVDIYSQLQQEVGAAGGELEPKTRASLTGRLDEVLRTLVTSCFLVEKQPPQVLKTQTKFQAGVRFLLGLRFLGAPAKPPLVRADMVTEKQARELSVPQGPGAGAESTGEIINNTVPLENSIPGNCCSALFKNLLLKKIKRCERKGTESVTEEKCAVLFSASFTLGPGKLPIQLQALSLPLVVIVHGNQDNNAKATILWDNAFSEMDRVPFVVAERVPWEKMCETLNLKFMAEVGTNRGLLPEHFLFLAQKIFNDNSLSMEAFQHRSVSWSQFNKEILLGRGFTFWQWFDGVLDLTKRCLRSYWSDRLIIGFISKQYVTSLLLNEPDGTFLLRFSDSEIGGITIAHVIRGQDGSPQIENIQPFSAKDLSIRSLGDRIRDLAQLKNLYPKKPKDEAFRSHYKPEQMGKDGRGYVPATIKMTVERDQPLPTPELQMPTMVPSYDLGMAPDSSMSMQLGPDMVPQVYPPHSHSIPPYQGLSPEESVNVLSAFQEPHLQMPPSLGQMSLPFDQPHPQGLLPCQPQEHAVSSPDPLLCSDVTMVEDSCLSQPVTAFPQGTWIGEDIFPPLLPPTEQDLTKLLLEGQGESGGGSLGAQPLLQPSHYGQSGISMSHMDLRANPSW
UniProt P42226, 123-632 limits assumed: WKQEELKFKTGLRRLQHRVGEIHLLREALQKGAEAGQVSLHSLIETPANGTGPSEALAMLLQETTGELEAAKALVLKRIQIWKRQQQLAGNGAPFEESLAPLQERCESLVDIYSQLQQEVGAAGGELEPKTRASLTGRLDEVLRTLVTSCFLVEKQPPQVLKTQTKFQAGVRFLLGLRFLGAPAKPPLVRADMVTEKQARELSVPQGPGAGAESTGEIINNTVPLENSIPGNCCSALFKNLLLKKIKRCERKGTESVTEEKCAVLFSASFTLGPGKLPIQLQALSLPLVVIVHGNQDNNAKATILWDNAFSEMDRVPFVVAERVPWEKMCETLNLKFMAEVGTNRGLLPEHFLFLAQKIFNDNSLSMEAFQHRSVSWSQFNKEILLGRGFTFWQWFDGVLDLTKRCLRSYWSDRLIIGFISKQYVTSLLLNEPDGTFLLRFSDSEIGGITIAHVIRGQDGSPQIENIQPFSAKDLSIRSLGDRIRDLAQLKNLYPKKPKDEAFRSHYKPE

Tests used:
STAT6-HiBiT = STAT6-HiBiT (Homo sapiens, UniProt P42226); test: STAT6 HiBiT degradation in A549 (STAT6-HiBiT) cells; details: for DC50: read-out: STAT6 HiBiT degradation DC50 (nM) 24 h
Experimental: Degradation of STAT6 in endogenously tagged STAT6-HiBiT A549 cells was quantitatively measured using the Nano-Glo HiBiT Lytic Detection System (Promega, 3040). A549 (STAT6-HiBiT) cells were seeded in 384-well plates with a density of 1.25k cells per well in 20 μl fresh media. Compounds were then added to the assay plates using the Apricot S3 with a final top concentration of up to 10 uM in a 4-fold dilution series with total of 10 doses. The assay plates were then incubated for 24 hours at 37° C. under 5% CO2. At the assay endpoint, 20 μL of Nano-Glo HiBiT Lytic Reagent was added to each well and agitated on a plate shaker at 300 rpm for 10 minutes at room temperature. Luminescence was read on PHERAStar FSX Instrument (Is integration time). The data was analyzed by GraphPad Prism and the dose dependent STAT6 degradation was fit using the four-parameter inhibitor vs. response nonlinear regression.
The letter codes for DC50 (nM) include: A (<1 nM): B (1-10 nM); C (>10-100 nM); D (>100-1000 nM); E (>1000 nM); and F (not tested). The letter codes for Dmax (%) include: A (>90%); B (>70-90%); C (>50-70%); D (<50%); and E (not tested).

[1] = biological target: biotinylated truncated STAT6 (123-632)-avi (Homo sapiens, UniProt P42226); test: STAT6 HTRF binding assay; details: read-out: STAT6 HTRF: Average IC50; HTRF binding, 0.15 nM biotinylated truncated STAT6 (123-632)-avi, 20 nM fluorescein-labeled probe

CN(C)C(=O)c1cc(-c2ccc(C3CCN(c4ccc(C5CCC(=O)NC5=O)cc4F)CC3)cc2)c2c(c1)cc(C1=CCCN(C(=O)CCn3ccnn3)C1)n2CC1CC1 (stereo not drawn)
STAT6 HiBiT degradation Dmax % 24 h (STAT6-HiBiT): A (A (>90%))
DC50 (STAT6-HiBiT): < 1 nM
IC50 [1]: < 100 nM

CN(C)C(=O)c1cc(-c2ccc(C3CCN(c4ncc(C5CCC(=O)NC5=O)cc4F)CC3)cc2)c2c(c1)cc(C1=CCCN(C(=O)CCn3ccnn3)C1)n2CC1CC1 (stereo not drawn)
STAT6 HiBiT degradation Dmax % 24 h (STAT6-HiBiT): B (B (>70-90%))
DC50 (STAT6-HiBiT): < 1 nM
IC50 [1]: < 100 nM

CN(C)C(=O)c1cc2c(-c3ccc([C@@H]4CCN(C5CCN(c6ccc(C7CCC(=O)NC7=O)cc6F)CC5)CC4(F)F)c(F)c3F)cc(C3=CCCN(C(=O)CCn4cccn4)C3)c(F)c2[nH]1 (stereo partly drawn)
STAT6 HiBiT degradation Dmax % 24 h (STAT6-HiBiT): A (A (>90%))
DC50 (STAT6-HiBiT): < 1 nM
IC50 [1]: < 100 nM

COc1cc(N2CC3(CCN(c4ccc(-c5cc(C6=CCCN(C(=O)CCn7cccn7)C6)c(F)c6[nH]c(C(=O)N(C)C)cc56)c(F)c4F)CC3)C2)c(F)cc1C(=O)NC1CCC(=O)NC1=O (stereo not drawn)
STAT6 HiBiT degradation Dmax % 24 h (STAT6-HiBiT): A (A (>90%))
DC50 (STAT6-HiBiT): < 1 nM
IC50 [1]: 100 to 1000 nM

CCN(C)C(=O)c1cc2c(-c3ccc(C4CCN(c5cccc6c5C(C)(C)C(=O)N6C5CCC(=O)NC5=O)CC4)cc3C)cc(C3=CCCN(C(=O)CCn4ccnn4)C3)c(F)c2[nH]1 (stereo not drawn)
STAT6 HiBiT degradation Dmax % 24 h (STAT6-HiBiT): A (A (>90%))
DC50 (STAT6-HiBiT): < 1 nM
IC50 [1]: 100 to 1000 nM

CN(C)C(=O)c1cc(-c2ccc(N3C[C@H]4CN(c5ccc(C6CCC(=O)NC6=O)cc5F)[C@H]4C3)c(F)c2)c2c(c1)cc(C1=CCCN(C(=O)CCn3ccnn3)C1)n2CC1CC1 (stereo partly drawn)
STAT6 HiBiT degradation Dmax % 24 h (STAT6-HiBiT): B (B (>70-90%))
DC50 (STAT6-HiBiT): 1 to 10 nM
IC50 [1]: < 100 nM

COc1cc(N2CC3(CCN(c4ccc(-c5cc(C6=CCCN(C(=O)CCn7cccn7)C6)c(F)c6[nH]c(C(=O)N(C)C)cc56)cc4F)CC3)C2)c(F)cc1C(=O)NC1CCC(=O)NC1=O (stereo not drawn)
STAT6 HiBiT degradation Dmax % 24 h (STAT6-HiBiT): A (A (>90%))
DC50 (STAT6-HiBiT): < 1 nM
IC50 [1]: 100 to 1000 nM

CN(C)C(=O)c1cc(-c2ccc(N3CCCN(c4ccc(C5CCC(=O)NC5=O)cc4F)CC3)c(F)c2)c2c(c1)cc(C1=CCCN(C(=O)CCn3ccnn3)C1)n2CC1CC1 (stereo not drawn)
STAT6 HiBiT degradation Dmax % 24 h (STAT6-HiBiT): C (C (>50-70%))
DC50 (STAT6-HiBiT): 1 to 10 nM
IC50 [1]: < 100 nM

CCN(C)C(=O)c1cc2c(-c3ccc(N4CCN(c5ccc(C6CCC(=O)NC6=O)cc5F)CC4)c(F)c3F)cc(C3=CCCN(C(=O)CCn4ccnn4)C3)c(F)c2[nH]1 (stereo not drawn)
STAT6 HiBiT degradation Dmax % 24 h (STAT6-HiBiT): A (A (>90%))
DC50 (STAT6-HiBiT): < 1 nM
IC50 [1]: < 100 nM

CN(C)C(=O)c1cc2c(-c3ccc(C4CCN(CCc5cccc6c5C(C)(C)C(=O)N6C5CCC(=O)NC5=O)CC4)cc3)cc(C3=CCCN(C(=O)CCn4cccn4)C3)c(F)c2[nH]1 (stereo not drawn)
STAT6 HiBiT degradation Dmax % 24 h (STAT6-HiBiT): A (A (>90%))
DC50 (STAT6-HiBiT): < 1 nM
IC50 [1]: < 100 nM

CN(C)C(=O)c1cc2c(-c3ccc(N4CCN([C@H]5CCN(c6ccc(C7CCC(=O)NC7=O)cc6F)CC5(F)F)CC4)c(F)c3F)cc(C3=CCCN(C(=O)CCn4ccnn4)C3)c(F)c2[nH]1 (stereo partly drawn)
STAT6 HiBiT degradation Dmax % 24 h (STAT6-HiBiT): A (A (>90%))
DC50 (STAT6-HiBiT): < 1 nM
IC50 [1]: < 100 nM

Cc1c(N2CCC(c3ccc(-c4cc(C5=CCCN(C(=O)CCn6cccn6)C5)c(F)c5[nH]c(C(=O)N(C)C)cc45)cc3)CC2)cnc(C2CCC(=O)NC2=O)c1F (stereo not drawn)
STAT6 HiBiT degradation Dmax % 24 h (STAT6-HiBiT): A (A (>90%))
DC50 (STAT6-HiBiT): < 1 nM
IC50 [1]: < 100 nM

CCN(C)C(=O)c1cc2c(-c3ccc(C4CCN(c5cc(F)c(C6CCC(=O)NC6=O)cc5F)CC4)cc3)cc(C3=CCCN(C(=O)CCn4ccnn4)C3)c(F)c2[nH]1 (stereo not drawn)
STAT6 HiBiT degradation Dmax % 24 h (STAT6-HiBiT): A (A (>90%))
DC50 (STAT6-HiBiT): < 1 nM
IC50 [1]: 100 to 1000 nM

CN(C)C(=O)c1cc(-c2ccc(C3CCN(c4ccc(C5CCC(=O)NC5=O)cc4F)CC3)cc2)c2nc(C3=CCCN(C(=O)CCn4ccnn4)C3)sc2c1 (stereo not drawn)
STAT6 HiBiT degradation Dmax % 24 h (STAT6-HiBiT): A (A (>90%))
DC50 (STAT6-HiBiT): 1 to 10 nM
IC50 [1]: < 100 nM

CN(C)C(=O)c1cc2c(-c3ccc(C4CCN(CCc5cccc6c5C(C)(C)C(=O)N6C5CCC(=O)NC5=O)CC4)c(F)c3F)cc(C3=CCCN(C(=O)CCn4cccn4)C3)c(F)c2[nH]1 (stereo not drawn)
STAT6 HiBiT degradation Dmax % 24 h (STAT6-HiBiT): A (A (>90%))
DC50 (STAT6-HiBiT): < 1 nM
IC50 [1]: < 100 nM

CN(C)C(=O)c1cc2c(-c3ccc(C4CCN(c5ccc([C@@]6(C)CCC(=O)NC6=O)cc5F)CC4)cc3)cc(C3=CCCN(C(=O)CCn4ccnn4)C3)c(F)c2[nH]1 (single isomer, unassigned)
STAT6 HiBiT degradation Dmax % 24 h (STAT6-HiBiT): B (B (>70-90%))
DC50 (STAT6-HiBiT): < 1 nM
IC50 [1]: < 100 nM

CN(C)C(=O)c1cc2c(-c3ccc(N4CCN([C@@H]5CCN(c6ccc(C7CCC(=O)NC7=O)cc6F)CC5(F)F)CC4)c(F)c3F)cc(C3=CCCN(C(=O)CCn4ccnn4)C3)c(F)c2[nH]1 (stereo partly drawn)
STAT6 HiBiT degradation Dmax % 24 h (STAT6-HiBiT): A (A (>90%))
DC50 (STAT6-HiBiT): < 1 nM
IC50 [1]: < 100 nM

CN(C)C(=O)c1cc(-c2ccc(C3CCN(c4cccc5c(C6CCC(=O)NC6=O)nn(C)c45)CC3)cc2)c2c(c1)cc(C1=CCCN(C(=O)CCn3ccnn3)C1)n2CC1CC1 (stereo not drawn)
STAT6 HiBiT degradation Dmax % 24 h (STAT6-HiBiT): A (A (>90%))
DC50 (STAT6-HiBiT): < 1 nM
IC50 [1]: < 100 nM

CN(C)C(=O)c1cc2c(-c3cc(F)c(N4CCN(CCc5cccc6c5C5(CC5)C(=O)N6C5CCC(=O)NC5=O)CC4)cc3Cl)cc(C3=CCCN(C(=O)CCn4cccn4)C3)c(F)c2[nH]1 (stereo not drawn)
STAT6 HiBiT degradation Dmax % 24 h (STAT6-HiBiT): A (A (>90%))
DC50 (STAT6-HiBiT): < 1 nM
IC50 [1]: < 100 nM

CN(C(=O)c1cc2c(-c3ccc(C4CCN(c5ccc(C6CCC(=O)NC6=O)cc5F)CC4)cc3)cc(C3=CCCN(C(=O)CCn4ccnn4)C3)c(F)c2[nH]1)C1CC1 (stereo not drawn)
STAT6 HiBiT degradation Dmax % 24 h (STAT6-HiBiT): A (A (>90%))
DC50 (STAT6-HiBiT): < 1 nM
IC50 [1]: < 100 nM

Cc1nc(-c2cc(C3=CCCN(C(=O)CCn4cccn4)C3)c(F)c3[nH]c(C(=O)N(C)C)cc23)c(F)cc1C1CCN(c2ccc(C3CCC(=O)NC3=O)cc2F)CC1 (stereo not drawn)
STAT6 HiBiT degradation Dmax % 24 h (STAT6-HiBiT): A (A (>90%))
DC50 (STAT6-HiBiT): < 1 nM
IC50 [1]: < 100 nM

CN(C)C(=O)c1cc2c(-c3ccc(C4CCN(CCc5cccc6c5C(C)(C)C(=O)N6C5CCC(=O)NC5=O)CC4)c(F)c3)cc(C3=CCCN(C(=O)CCn4ccnn4)C3)c(F)c2[nH]1 (stereo not drawn)
STAT6 HiBiT degradation Dmax % 24 h (STAT6-HiBiT): A (A (>90%))
DC50 (STAT6-HiBiT): < 1 nM
IC50 [1]: < 100 nM

Cc1cc(C2CCN(c3cccc4c3C(C)(C)C(=O)N4C3CCC(=O)NC3=O)CC2)ccc1-c1cc(C2=CCCN(C(=O)[C@@H](C)Cn3cccn3)C2)c(F)c2[nH]c(C(=O)N(C)C)cc12 (stereo partly drawn)
STAT6 HiBiT degradation Dmax % 24 h (STAT6-HiBiT): A (A (>90%))
DC50 (STAT6-HiBiT): 1 to 10 nM
IC50 [1]: 1000 to 10000 nM

CN(C)C(=O)c1cc2c(-c3cc(F)c(N4CCC(c5ccc(C6CCC(=O)NC6=O)cc5F)CC4)cc3F)cc(C3=CCCN(C(=O)CCn4ccnn4)C3)c(F)c2[nH]1 (stereo not drawn)
STAT6 HiBiT degradation Dmax % 24 h (STAT6-HiBiT): A (A (>90%))
DC50 (STAT6-HiBiT): < 1 nM
IC50 [1]: < 100 nM

CN(C)C(=O)c1cc(-c2ccc(C3CCN(c4ccc(C5CCC(=O)NC5=O)c(F)c4)CC3)c(F)c2)c2c(c1)cc(C1=CCCN(C(=O)CCn3ccnn3)C1)n2CC1CC1 (stereo not drawn)
STAT6 HiBiT degradation Dmax % 24 h (STAT6-HiBiT): A (A (>90%))
DC50 (STAT6-HiBiT): < 1 nM
IC50 [1]: < 100 nM

CN(C)C(=O)c1cc(-c2ccc(C3CCN(c4ccc(C5CCC(=O)NC5=O)cc4F)CC3)cc2)c2c(cc(C3=CCCN(C(=O)CCn4ccnn4)C3)n2CC2CC2)c1F (stereo not drawn)
STAT6 HiBiT degradation Dmax % 24 h (STAT6-HiBiT): B (B (>70-90%))
DC50 (STAT6-HiBiT): 10 to 100 nM
IC50 [1]: 100 to 1000 nM

CN(C)C(=O)c1cc(-c2ccc(C3CCN(c4ncc(C5CCC(=O)NC5=O)cc4F)CC3)cc2)c2c(c1)cc(C1=CCCN(C(=O)CCn3cccn3)C1)n2CC1CC1 (stereo not drawn)
STAT6 HiBiT degradation Dmax % 24 h (STAT6-HiBiT): B (B (>70-90%))
DC50 (STAT6-HiBiT): 10 to 100 nM
IC50 [1]: 100 to 1000 nM

CN(C)C(=O)c1cc2c(-c3ccc(N4CCN(C5CCN(c6cc(F)c(C7CCC(=O)NC7=O)cc6F)CC5)CC4)c(F)c3F)cc(C3=CCCN(C(=O)CCn4cccn4)C3)c(F)c2[nH]1 (stereo not drawn)
STAT6 HiBiT degradation Dmax % 24 h (STAT6-HiBiT): A (A (>90%))
DC50 (STAT6-HiBiT): < 1 nM
IC50 [1]: < 100 nM

Cc1cc(C2CCN(c3ccc(C4CCC(=O)NC4=O)cc3F)CC2)ccc1-c1cc(C(=O)N(C)C)cc2cc(C3=CCCN(C(=O)CCn4ccnn4)C3)n(CC3CC3)c12 (stereo not drawn)
STAT6 HiBiT degradation Dmax % 24 h (STAT6-HiBiT): A (A (>90%))
DC50 (STAT6-HiBiT): < 1 nM
IC50 [1]: < 100 nM
